According to US20260306421A1, “SYSTEMS AND METHODS FOR TRANSDERMAN PATCH DELIVERY” (VITAMAX PATCH WHOLESALER LLC, priority 2022, published 2026):
Marks after values point to notes of the source that are not given here.

Experiment: Solubility of zinc chloride and zinc complexes (visual / HPLC)
Assay type: physicochemical
Method: Accurate measurement of the solubility was then repeated for some of the solvent systems by HPLC. In the HPLC solubility studies, an excess of the test agents was loaded into 2 mL of each test solvent. The solutions were left stirring overnight at 32° C. […] The drug suspensions were then centrifuged, the supernatant diluted, and each sample concentration was measured using HPLC.

Cc1occc(=O)c1O.[Zn] [Zinc Maltol, zinc maltol]
Elemental zinc solubility (visual) (solvent PEG400): 21.0* mg/mL | Elemental zinc solubility (visual) (solvent Transcutol): 9.3* mg/mL
